Values joined by “and” are separate entries in the source; they are usually repeats but may differ in a detail not shown here. Identical values can stand only once.
System: MCF-7/NOD1 cells, GM-Tri-DAP induced IL-8 secretion
Assay: inhibition of NOD1-driven IL-8 release, SAR follow-up, MCF-7/NOD1 cells, GM-Tri-DAP stimulus (AID 2250)

Compound: Cc1ccc(S(=O)(=O)n2c(N)nc3ccccc32)cc1
- IC50: 620 nM and 810 nM

Reference: PubChem BioAssay AID2250 (Sanford-Burnham Center for Chemical Genomics, 2010)
